T1: murine TAP1/TAP2 complexes (mouse, UniProt P21958 1-724; P36371 1-702)
T1 construct: also called mouse TAP complexes; murine TAP transporter
T1 sequence (looked up) 1: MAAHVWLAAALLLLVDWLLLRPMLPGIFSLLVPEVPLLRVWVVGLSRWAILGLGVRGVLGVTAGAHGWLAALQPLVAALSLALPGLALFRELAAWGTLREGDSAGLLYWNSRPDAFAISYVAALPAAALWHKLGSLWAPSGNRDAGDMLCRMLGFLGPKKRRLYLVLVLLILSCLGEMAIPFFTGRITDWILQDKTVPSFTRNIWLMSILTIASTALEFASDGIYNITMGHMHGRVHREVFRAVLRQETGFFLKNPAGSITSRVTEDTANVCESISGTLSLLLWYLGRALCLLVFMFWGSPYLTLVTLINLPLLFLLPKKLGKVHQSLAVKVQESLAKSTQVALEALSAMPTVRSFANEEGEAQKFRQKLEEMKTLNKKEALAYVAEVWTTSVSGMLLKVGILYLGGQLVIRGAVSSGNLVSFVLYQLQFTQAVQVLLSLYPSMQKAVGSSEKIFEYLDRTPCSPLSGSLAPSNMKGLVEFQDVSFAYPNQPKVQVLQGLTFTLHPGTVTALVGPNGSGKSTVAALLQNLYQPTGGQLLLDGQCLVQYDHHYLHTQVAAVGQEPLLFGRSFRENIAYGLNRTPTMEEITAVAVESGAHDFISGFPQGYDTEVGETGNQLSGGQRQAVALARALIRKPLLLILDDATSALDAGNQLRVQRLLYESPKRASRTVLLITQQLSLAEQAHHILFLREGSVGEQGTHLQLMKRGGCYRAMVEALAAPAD
T1 sequence (looked up) 2: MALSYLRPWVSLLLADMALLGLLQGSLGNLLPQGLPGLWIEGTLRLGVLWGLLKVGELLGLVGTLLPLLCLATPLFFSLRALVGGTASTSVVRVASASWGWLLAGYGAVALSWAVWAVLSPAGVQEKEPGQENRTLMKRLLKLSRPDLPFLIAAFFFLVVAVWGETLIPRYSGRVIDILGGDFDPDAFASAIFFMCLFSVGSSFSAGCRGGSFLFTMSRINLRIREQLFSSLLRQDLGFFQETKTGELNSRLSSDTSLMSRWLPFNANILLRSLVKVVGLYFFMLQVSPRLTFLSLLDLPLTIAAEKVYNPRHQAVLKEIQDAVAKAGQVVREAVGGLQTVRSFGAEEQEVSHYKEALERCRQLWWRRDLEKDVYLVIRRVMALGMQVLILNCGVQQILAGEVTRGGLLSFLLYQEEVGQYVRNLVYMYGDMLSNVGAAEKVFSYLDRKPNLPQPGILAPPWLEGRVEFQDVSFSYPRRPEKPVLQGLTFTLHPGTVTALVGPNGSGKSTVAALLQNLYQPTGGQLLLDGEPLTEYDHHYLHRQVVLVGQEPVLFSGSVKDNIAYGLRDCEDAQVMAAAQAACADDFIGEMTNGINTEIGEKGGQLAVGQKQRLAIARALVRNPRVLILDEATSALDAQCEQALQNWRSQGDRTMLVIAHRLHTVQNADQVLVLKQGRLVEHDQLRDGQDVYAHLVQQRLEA


Molecular target: T1, murine TAP1/TAP2 complexes
Assay: fluorescence polarisation

| Binder | relative IC50 [ratio] |
| --- | --- |
| LLAVCGCIE | > 5000 |
| RDAEFVMCL | 0.15 |
| KTGGPIYKR | > 5800 |
| NIVYKKNNR | > 5500 |
| NQSSHKGVG | > 7000 |
| NMEANDPEK | > 6000 |
| AAFEFINSL | 0.11 |
| NLYISDYKM | 0.23 |
| AIITPVVFY | 0.25 |

Reference: paper PMC2408963 (PLoS ONE, 2008)
